Experimental data reported in ChEMBL document CHEMBL1140232, “Surprising alteration of antibacterial activity of 5"-modified neomycin against resistant bacteria” (2008).

Test system: Pseudomonas aeruginosa
Test: Antibacterial activity against aminoglycosides-resistant Pseudomonas aeruginosa ATCC 27853 expressing APH(3')-2b after 12 to 18 hrs
Type: functional
How it was run: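 Broth microdilution MIC. Culture diluted with broth to an absorbance of 0.08–0.1 at 625 nm. 100 μL of this was diluted into 10 mL broth and dispensed into 96-well plates. Each well received 50 μL inoculum plus 50 μL of a 2-fold compound dilution series. Plates were incubated at 35°C for 12–18 h. MIC is the lowest concentration that inhibits growth, from at least three repeats.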

GENTAMICIN
MIC: 0.5 µg/mL
